{
  "sequences": {"note": "Sequences of proteins named here, by UniProt entry; tags and fusion partners are left off. Residues count along the entry.", "UniProt O60674, 849-1124 limits assumed": "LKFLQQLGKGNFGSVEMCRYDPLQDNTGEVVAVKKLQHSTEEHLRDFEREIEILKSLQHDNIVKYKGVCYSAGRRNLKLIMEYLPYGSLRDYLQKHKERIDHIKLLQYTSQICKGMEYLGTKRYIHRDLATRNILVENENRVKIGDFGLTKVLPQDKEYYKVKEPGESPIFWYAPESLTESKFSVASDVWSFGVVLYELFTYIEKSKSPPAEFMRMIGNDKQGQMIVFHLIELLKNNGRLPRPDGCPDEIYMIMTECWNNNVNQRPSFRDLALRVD"},
  "source": "patent US10508120B2",
  "about": "“TYK2 inhibitors and uses thereof” (Nimbus Lakshmi, Inc., priority 2017, dated 2019)",
  "data": [
    {"molecular_target": "JAK2 kinase domain (JH1) (Homo sapiens (Human), UniProt O60674)", "assay": "JAK2 Radioactive Kinase Assay", "type": "biochemical", "conditions": "compound at 10 μM; ATP 10 μM", "values": [
      {"compound": "CNc1cc(Nc2cc(F)cn(C3CCOCC3)c2=O)nc2c(C(=O)NCC(C)(C)CO)cnn12", "JAK2 JH1% Inhibition @ 10 μM": "A (percent inhibition at 10 μM lower than 50)"},
      {"compound": "CNc1cc(Nc2cccc(N3CCOC4(CCOC4)C3)n2)nc2c(C(=O)NC3CC3)cnn12", "note": "(stereo not drawn)", "JAK2 JH1% Inhibition @ 10 μM": "A (percent inhibition at 10 μM lower than 50)"},
      {"compound": "CNc1cc(Nc2cccnc2OC2CC2)nc2c(C(=O)NC3CC4(COC4)C3)cnn12", "JAK2 JH1% Inhibition @ 10 μM": "B (percent inhibition at 10 μM between 50 and 70)"}
    ]}
  ]
}
